# This is a selection; strong and weak results do not stand in their true shares. Some salts and complexes are drawn in separate pieces, as the source files them; their charges need not balance. Calls of active or inactive are those of the source. No rule for the calls is given here.
# Assay: activators reversing PD-1 mediated T-cell inhibition, primary screen, luminescence, primary human CD4 T cells, PD-L1 beads (AID 2316);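 also: 0% = median vehicle wells and 100% = positive control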
# Details: CellTiter-Glo 96 h, stronger effect = higher value
row,Structure (SMILES),activation
1,COc1cc2c(cc1NP(C)(=O)Oc1ccccc1)oc1ccccc12 (stereo not given),inactive: -0.934%
2,C/C1=C2N=C(/C=C3N=C(/C(C)=C4\[N-][C@@](C)([C@@H]5N=C1[C@](C)(CCC(=O)NCC(C)OP(=O)(O)O[C@@H]1[C@H](O)[C@H](n6cnc7cc(C)c(C)cc76)O[C@H]1CO)[C@H]5CC(N)=O)[C@@](C)(CC(N)=O)[C@@H]4CCC(N)=O)[C@@](C)(CC(N)=O)[C@@H]\3CCC(N)=O)C(C)(C)[C@@H]/2CCC(N)=O.[C-]#N.[Co+3] (stereo not given in full),inactive: -0.161%
3,O=P1(Nc2ccccn2)COc2ccccc2OC1,inactive: 0.374%
4,Cc1ccc(C(=O)OC2CN3CCC2CC3)cc1 (stereo not given),inactive: 1.12%
5,O=C(OC1CN2CCC1CC2)c1ccc(Cl)cc1 (stereo not given),inactive: 1.37%

# — PubChem BioAssay AID2316 (Broad Institute, 2010)
